Test results: patent publication US10308689B2, “Dengue virus (DV) polypeptide sequences, T cell epitopes and methods and uses thereof” (LA JOLLA INSTITUTE FOR ALLERGY AND IMMUNOLOGY, priority 2010, dated 2019)

Tested on: PBMC of healthy adult blood donors from Colombo, Sri Lanka
Assay: Ex vivo IFNγ ELISPOT, HLA-matched PBMC of Sri Lankan blood donors
Type: cell-based, human
Details: ex vivo IFNγ ELISPOT
[1] = donors expressing HLA B*5801 (supertype B58)
[2] = donors expressing HLA B*0702 (supertype B7)
[3] = donors expressing HLA B*4001 (supertype B44)
[4] = donors expressing HLA B*3501 (supertype B7)
[5] = donors expressing HLA A*0201 (supertype A2)

CC[C@H](C)[C@H](NC(=O)[C@@H]1CCCN1C(=O)CNC(=O)[C@@H](NC(=O)[C@H](C)N)[C@@H](C)O)C(=O)N[C@@H](CC(C)C)C(=O)N[C@H](C(=O)N[C@@H](CC(C)C)C(=O)N[C@@H](Cc1c[nH]c2ccccc12)C(=O)O)[C@@H](C)O
T cell response [SFC] [1]: 27 SFC

CC(C)C[C@H](NC(=O)[C@H](CC(C)C)NC(=O)CNC(=O)CNC(=O)[C@H](C)NC(=O)[C@@H](NC(=O)[C@H](CC(C)C)NC(=O)[C@@H]1CCCN1C(=O)CN)C(C)C)C(=O)O
T cell response [SFC] [2]: 35 SFC

CC[C@H](C)[C@H](NC(=O)[C@H](CO)NC(=O)[C@H](CC(C)C)NC(=O)[C@H](C)NC(=O)[C@@H](N)CCSC)C(=O)N[C@H](C(=O)N[C@@H](CO)C(=O)N[C@@H](CC(C)C)C(=O)N[C@@H](Cc1ccccc1)C(=O)O)C(C)C
T cell response [SFC] (donors expressing HLA B*5101 (supertype B7)): 340 SFC

CSCC[C@H](NC(=O)[C@H](C)NC(=O)CNC(=O)[C@H](CCC(=O)O)NC(=O)[C@@H](N)CCC(N)=O)C(=O)N[C@@H](Cc1c[nH]cn1)C(=O)N[C@H](C(=O)N[C@@H](C)C(=O)N[C@@H](CC(C)C)C(=O)O)[C@@H](C)O [QEGAMHTAL]
T cell response [SFC] [3]: 120 SFC

CSCC[C@H](NC(=O)[C@H](CCCCN)NC(=O)[C@H](CC(C)C)NC(=O)[C@@H](NC(=O)[C@@H](N)CCCNC(=N)N)C(C)C)C(=O)N[C@H](C(=O)N[C@@H](CCC(=O)O)C(=O)N1CCC[C@H]1C(=O)N[C@@H](Cc1c[nH]c2ccccc12)C(=O)O)C(C)C
T cell response [SFC] (donors expressing B*5801): 643 SFC

CC(C)C[C@H](NC(=O)[C@@H](NC(=O)[C@H](Cc1c[nH]c2ccccc12)NC(=O)[C@H](C)NC(=O)[C@H](CO)NC(=O)[C@H](C)NC(=O)[C@@H]1CCCN1C(=O)[C@@H](N)Cc1c[nH]cn1)[C@@H](C)O)C(=O)N[C@@H](Cc1ccc(O)cc1)C(=O)O
T cell response [SFC] [4]: 38 SFC

CC[C@H](C)[C@H](NC(=O)[C@H](CCC(N)=O)NC(=O)[C@@H](N)CCCCN)C(=O)N[C@@H](C)C(=O)N[C@@H](CC(N)=O)C(=O)N[C@@H](CCC(=O)O)C(=O)N[C@@H](CC(C)C)C(=O)N[C@@H](CC(N)=O)C(=O)N[C@@H](Cc1ccc(O)cc1)C(=O)O
T cell response [SFC] (donors expressing HLA B*1501 (supertype B62)): 22 SFC

CC[C@H](C)[C@H](NC(=O)[C@@H]1CCCN1C(=O)[C@@H](N)CC(=O)O)C(=O)N1CCC[C@H]1C(=O)N[C@@H](Cc1ccc(O)cc1)C(=O)N[C@@H](CC(=O)O)C(=O)N1CCC[C@H]1C(=O)N[C@@H](CCCCN)C(=O)N[C@@H](Cc1ccccc1)C(=O)O
T cell response [SFC] [4]: 77 SFC

CC(C)C[C@H](NC(=O)[C@H](CO)NC(=O)CNC(=O)[C@H](CS)NC(=O)[C@H](Cc1c[nH]c2ccccc12)NC(=O)[C@H](CCC(N)=O)NC(=O)[C@H](CC(=O)O)NC(=O)[C@H](CCC(=O)O)NC(=O)[C@@H](N)CCCNC(=N)N)C(=O)O
T cell response [SFC] (donors expressing B*4001): 150 SFC

CC[C@H](C)[C@H](NC(=O)[C@H](C)NC(=O)[C@H](CC(C)C)NC(=O)[C@H](CC(C)C)NC(=O)[C@@H]1CCCN1C(=O)[C@@H](N)C(C)C)C(=O)NCC(=O)N[C@@H](CS)C(=O)N[C@@H](Cc1ccc(O)cc1)C(=O)O
T cell response [SFC] [4]: 213 SFC

CC[C@H](C)[C@H](N)C(=O)N1CCC[C@H]1C(=O)N[C@@H](CCSC)C(=O)N[C@@H](C)C(=O)N[C@H](C(=O)N[C@@H](Cc1ccc(O)cc1)C(=O)NCC(=O)N[C@@H](Cc1c[nH]c2ccccc12)C(=O)N[C@@H](CC(N)=O)C(=O)N[C@@H](CC(C)C)C(=O)O)[C@@H](C)O
T cell response [SFC] [2]: 450 SFC

CSCC[C@H](NC(=O)[C@@H](NC(=O)[C@H](Cc1c[nH]cn1)NC(=O)[C@H](Cc1ccccc1)NC(=O)[C@@H](NC(=O)CNC(=O)[C@H](CCC(=O)O)NC(=O)[C@@H](N)CCSC)C(C)C)[C@@H](C)O)C(=O)N[C@@H](Cc1c[nH]c2ccccc12)C(=O)O
T cell response [SFC] (donors expressing HLA B*4403 (supertype B44)): 68 SFC

CSCC[C@H](NC(=O)[C@H](CC(C)C)NC(=O)[C@@H](NC(=O)[C@H](CCC(=O)O)NC(=O)[C@@H](N)CC(C)C)[C@@H](C)O)C(=O)N[C@@H](CC(C)C)C(=O)N[C@H](C(=O)N[C@@H](C)C(=O)N[C@@H](CC(C)C)C(=O)O)C(C)C [LETLMLVAL]
T cell response [SFC] [3]: 112 SFC

CC[C@H](C)[C@H](NC(=O)[C@H](CC(C)C)NC(=O)[C@H](C)NC(=O)[C@H](CC(C)C)NC(=O)[C@H](CC(C)C)NC(=O)[C@@H](N)CCSC)C(=O)N[C@@H](C)C(=O)N[C@H](C(=O)N[C@@H](CC(C)C)C(=O)O)C(C)C
T cell response [SFC] [5]: 85 SFC

CC[C@H](C)[C@H](NC(=O)[C@H](Cc1ccc(O)cc1)NC(=O)[C@@H](N)CCC(N)=O)C(=O)N[C@@H](Cc1ccccc1)C(=O)N[C@H](C(=O)NCC(=O)N[C@@H](CCC(N)=O)C(=O)N1CCC[C@H]1C(=O)N[C@@H](CC(C)C)C(=O)O)[C@@H](C)O
T cell response [SFC] (donors expressing HLA A*2402 (supertype A24)): 78 SFC

CSCC[C@H](NC(=O)[C@H](C)NC(=O)CNC(=O)[C@H](CCC(=O)O)NC(=O)[C@@H](N)CCC(N)=O)C(=O)N[C@@H](Cc1c[nH]cn1)C(=O)N[C@@H](CO)C(=O)N[C@@H](C)C(=O)N[C@@H](CC(C)C)C(=O)O [QEGAMHSAL]
T cell response [SFC] [3]: 22 SFC

CSCC[C@H](NC(=O)CNC(=O)[C@H](CC(C)C)NC(=O)[C@H](CC(=O)O)NC(=O)[C@H](CCCNC(=N)N)NC(=O)[C@H](CCCCN)NC(=O)[C@@H](NC(=O)[C@@H](N)[C@@H](C)O)[C@@H](C)O)C(=O)N[C@@H](CO)C(=O)N[C@@H](CCCCN)C(=O)O
T cell response [SFC] (donors expressing HLA A*1101 (supertype A3)): 75 SFC

C[C@@H](O)[C@H](NC(=O)[C@H](Cc1ccccc1)NC(=O)[C@H](CS)NC(=O)[C@H](Cc1c[nH]c2ccccc12)NC(=O)[C@H](CCC(=O)O)NC(=O)[C@@H](N)CCCNC(=N)N)C(=O)NCC(=O)N[C@@H](CCC(=O)O)C(=O)N[C@@H](CCCNC(=N)N)C(=O)N[C@@H](CC(N)=O)C(=O)O
T cell response [SFC] [3]: 48 SFC

CC(C)C[C@H](NC(=O)[C@@H](NC(=O)[C@@H](NC(=O)[C@H](CC(C)C)NC(=O)[C@@H]1CCCN1C(=O)CNC(=O)[C@@H](NC(=O)[C@H](C)N)[C@@H](C)O)[C@@H](C)O)[C@@H](C)O)C(=O)N[C@@H](Cc1c[nH]c2ccccc12)C(=O)O
T cell response [SFC] [1]: 350 SFC

CC[C@H](C)[C@H](NC(=O)CNC(=O)[C@@H](NC(=O)[C@@H](NC(=O)[C@H](C)NC(=O)[C@H](CCSC)NC(=O)[C@@H](N)CCSC)[C@@H](C)O)[C@@H](C)CC)C(=O)N[C@@H](C)C(=O)N[C@@H](CC(C)C)C(=O)O [MMATIGIAL]
T cell response [SFC] [4]: 38 SFC

CC[C@H](C)[C@H](NC(=O)[C@H](C)NC(=O)CNC(=O)[C@@H](N)Cc1ccccc1)C(=O)N[C@@H](Cc1ccc(O)cc1)C(=O)NCC(=O)N[C@@H](C)C(=O)N[C@@H](C)C(=O)N[C@@H](Cc1ccccc1)C(=O)O
T cell response [SFC] [4]: 28 SFC

CC(C)C[C@H](NC(=O)[C@H](Cc1c[nH]c2ccccc12)NC(=O)[C@@H](NC(=O)[C@@H]1CCCN1C(=O)[C@@H](N)CC(C)C)C(C)C)C(=O)N[C@@H](C)C(=O)N[C@@H](Cc1ccc(O)cc1)C(=O)N[C@@H](CCCCN)C(=O)N[C@H](C(=O)N[C@@H](C)C(=O)O)C(C)C
T cell response [SFC] [4]: 27 SFC

CC[C@H](C)[C@H](NC(=O)[C@@H]1CCCN1C(=O)CNC(=O)[C@@H](NC(=O)[C@H](C)N)[C@@H](C)O)C(=O)N[C@H](C(=O)N[C@H](C(=O)N[C@@H](CC(C)C)C(=O)N[C@@H](Cc1c[nH]c2ccccc12)C(=O)O)[C@@H](C)O)[C@@H](C)O
T cell response [SFC] [1]: 110 SFC

CC[C@H](C)[C@H](NC(=O)[C@H](CC(C)C)NC(=O)[C@H](C)NC(=O)[C@H](CC(C)C)NC(=O)[C@H](CC(C)C)NC(=O)[C@H](CCSC)NC(=O)[C@@H](N)CC(C)C)C(=O)N[C@@H](C)C(=O)N[C@H](C(=O)N[C@@H](CC(C)C)C(=O)O)C(C)C
T cell response [SFC] [5]: 63 SFC

CC(C)C[C@H](NC(=O)[C@H](CCCNC(=N)N)NC(=O)[C@@H]1CCCN1C(=O)[C@@H](N)CC(N)=O)C(=O)N[C@@H](CS)C(=O)N[C@H](C(=O)N[C@@H](CCCNC(=N)N)C(=O)N[C@@H](CCC(=O)O)C(=O)N[C@@H](CCC(=O)O)C(=O)N[C@@H](Cc1ccccc1)C(=O)O)[C@@H](C)O
T cell response [SFC] (donors expressing B*0702): 25 SFC

CC[C@H](C)[C@H](NC(=O)[C@H](C)NC(=O)[C@H](CCCNC(=N)N)NC(=O)[C@H](CO)NC(=O)CNC(=O)[C@@H](N)CCCCN)C(=O)N[C@@H](Cc1c[nH]c2ccccc12)C(=O)N[C@@H](Cc1ccc(O)cc1)C(=O)N[C@@H](CCSC)C(=O)N[C@@H](Cc1c[nH]c2ccccc12)C(=O)O
T cell response [SFC] (donors expressing B*5801): 335 SFC

CC(C)[C@H](NC(=O)[C@H](CCCNC(=N)N)NC(=O)[C@H](CCC(N)=O)NC(=O)[C@H](CCC(N)=O)NC(=O)CNC(=O)[C@H](Cc1ccccc1)NC(=O)[C@@H]1CCCN1C(=O)[C@@H](N)[C@@H](C)O)C(=O)N[C@@H](Cc1ccccc1)C(=O)O
T cell response [SFC] (donors expressing B*3501): 48 SFC

CC[C@H](C)[C@H](NC(=O)[C@H](CC(=O)O)NC(=O)[C@H](CC(=O)O)NC(=O)[C@H](CCC(=O)O)NC(=O)[C@@H](NC(=O)[C@H](CCC(=O)O)NC(=O)[C@@H]1CCCN1C(=O)[C@@H](N)CC(N)=O)[C@@H](C)CC)C(=O)N[C@@H](Cc1ccccc1)C(=O)O
T cell response [SFC] [4]: 110 SFC

CC[C@H](C)[C@H](N)C(=O)N[C@@H](C)C(=O)N[C@@H](CC(N)=O)C(=O)N[C@@H](CCC(N)=O)C(=O)N[C@@H](C)C(=O)N[C@H](C(=O)N[C@H](C(=O)N[C@@H](CC(C)C)C(=O)N[C@@H](CCSC)C(=O)O)C(C)C)[C@@H](C)O
T cell response [SFC] [4]: 220 SFC

CC(C)C[C@H](NC(=O)[C@H](CCC(=O)O)NC(=O)[C@H](CC(C)C)NC(=O)[C@H](CCCCN)NC(=O)CNC(=O)[C@H](CC(C)C)NC(=O)[C@H](Cc1c[nH]cn1)NC(=O)[C@H](Cc1c[nH]c2ccccc12)NC(=O)[C@@H]1CCCN1C(=O)CN)C(=O)O
T cell response [SFC] [2]: 53 SFC
